# Apparent affinities of Ab-14 variants for a coronavirus HR2 peptide

Binding partner: SARS-CoV-2 spike HR2 peptide, sequence PDVDLGDISGINAS.

Parent: Ab-14, a human scFv built as VH, three GGGGS repeats, VL. Only the CDRs of the light chain vary.
VH: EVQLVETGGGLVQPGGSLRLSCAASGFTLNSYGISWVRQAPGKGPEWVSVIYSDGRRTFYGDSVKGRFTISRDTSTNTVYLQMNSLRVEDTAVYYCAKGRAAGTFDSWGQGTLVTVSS
VL: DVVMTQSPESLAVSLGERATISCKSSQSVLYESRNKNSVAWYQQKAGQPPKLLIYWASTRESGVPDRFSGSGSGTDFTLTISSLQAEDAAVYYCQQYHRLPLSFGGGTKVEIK

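Phage display of a naive human antibody library on the peptide gave the parent. Library AAYL50 holds single substitutions and randomly drawn double and triple substitutions in the CDRs. In AlphaSeq, yeast of one mating type display the scFv and yeast of the other type display the target. After mating in shaken culture at 30 °C for 16 h, diploids were selected and their barcode pairs sequenced. Read counts were normalised to the haploid input and turned into Kd by a linear fit to BCL2-family pairs of known affinity, for each replicate. The assay was run in three technical replicates.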

Sequences are complete VL domains. Scale: log10 of Kd in nM, estimated from mating counts; low values are strong binders. Replicates are averaged; those with no signal do not enter the mean. A pair that was not seen in any replicate is written "no signal"; this usually means weak binding, but a binder can also be missed. Background: pairings of library AAYL50 with three empty control strains gave a value in 18% of cases (median 4.19, 5th percentile 2.99). Values in that range, when seen in few replicates, are hard to tell from nonspecific mating. The control count says in how many pairings with the empty strains this scFv gave a signal.

| # | VL | log10 Kd (nM), mean | replicates with signal | signal with controls |
|---|---|---|---|---|
| 1 | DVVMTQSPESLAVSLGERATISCKSSQSVLWESRNKNSVAWYQQKAGQPPKLLIYWASTRESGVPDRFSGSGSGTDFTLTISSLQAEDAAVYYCQQYHVLPQSFGGGTKVEIK | no signal | 0 of 3 | 0 of 9 |
| 2 | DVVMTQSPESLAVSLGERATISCKSSQSVLYESRNKHSVAWYQQKAGQPPKLLIYWASTRSSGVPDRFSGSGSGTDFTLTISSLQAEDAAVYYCQQYHHLPLSFGGGTKVEIK | 2.32 | 1 of 3 | 0 of 9 |
| 3 | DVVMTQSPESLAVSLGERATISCKSSQSVLTESRNKNTVAWYQQKAGQPPKLLIYWASTRESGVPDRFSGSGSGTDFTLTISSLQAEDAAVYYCQQCHRLPLSFGGGTKVEIK | 2.09 | 3 of 3 | 1 of 9 |
| 4 | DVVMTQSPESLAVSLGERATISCKSSGSVLYESRGKNSVAWYQQKAGQPPKLLIYWCSTRESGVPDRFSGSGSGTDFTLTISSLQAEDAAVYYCQQYHRLPLSFGGGTKVEIK | 3.79 | 3 of 3 | 2 of 9 |
| 5 | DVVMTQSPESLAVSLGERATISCKWSQSVLYESENKNSVAWYQQKAGQPPKLLIYWASTQESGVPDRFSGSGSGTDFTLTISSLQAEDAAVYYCQQYHRLPLSFGGGTKVEIK | 4.92 | 1 of 3 | 2 of 9 |
| 6 | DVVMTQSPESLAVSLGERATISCKSSQSVLYESRNKNGVAWYQQKAGQPPKLLIYWASTRESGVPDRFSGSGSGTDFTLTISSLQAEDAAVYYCQQYKGLPLSFGGGTKVEIK | 3.20 | 3 of 3 | 2 of 9 |
| 7 | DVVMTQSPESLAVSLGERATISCKSSQSVPYFSRNKNRVAWYQQKAGQPPKLLIYWASTRESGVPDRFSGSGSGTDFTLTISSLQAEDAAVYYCQQYHRLPLSFGGGTKVEIK | 1.67 | 3 of 3 | 7 of 9 |
| 8 | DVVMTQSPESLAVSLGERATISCKSSQSVLYESRNKCSVAWYQQKAGQPPKLLIYWTSTRESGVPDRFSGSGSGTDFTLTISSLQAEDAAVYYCTQYHRLPLSFGGGTKVEIK | 2.41 | 3 of 3 | 1 of 9 |
| 9 | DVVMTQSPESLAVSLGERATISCKSSQSVLYESRNGNSVAWYQQKAGQPPKLLIYWASVRESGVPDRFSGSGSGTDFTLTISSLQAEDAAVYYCQQYHRLPLSFGGGTKVEIK | 0.45 | 3 of 3 | 1 of 9 |
| 10 | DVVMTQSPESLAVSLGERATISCKSSQAVLYESRPKNSVAWYQQKAGQPPKLLIYWASTRKSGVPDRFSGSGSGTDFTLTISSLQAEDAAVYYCQQYHRLPLSFGGGTKVEIK | no signal | 0 of 3 | 0 of 9 |
| 11 | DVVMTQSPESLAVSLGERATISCKSSQSVLYESRNKNSVAWYQQKAGQPPKLLIYWASTRESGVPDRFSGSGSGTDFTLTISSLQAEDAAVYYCQQYKILPLSFGGGTKVEIK | 1.92 | 2 of 3 | 0 of 9 |
| 12 | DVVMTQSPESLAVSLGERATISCKSSQSVLYESRNKNSVAWYQQKAGQPPKLLIYWASTRESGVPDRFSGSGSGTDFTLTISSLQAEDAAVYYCQQEHRAPLSFGGGTKVEIK | no signal | 0 of 3 | 0 of 9 |

The remaining entries, values ahead:

| # | log10 Kd (nM), mean | replicates with signal | signal with controls | VL |
|---|---|---|---|---|
| 13 | 5.23 | 1 of 3 | 0 of 9 | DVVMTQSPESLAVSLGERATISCKSSLSVLYESRNKNSVAWYQQKAGQPPKLLIYWASTRESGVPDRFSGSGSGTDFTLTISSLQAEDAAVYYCQQCHRLPLSFGGGTKVEIK |
| 14 | 3.42 | 1 of 3 | 0 of 9 | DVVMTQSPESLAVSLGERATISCKSSQSVLYESRNKNSPAWYQQKAGQPPKLLIYWASTRESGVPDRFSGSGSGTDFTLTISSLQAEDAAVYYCQQQHRLPLSFGGGTKVEIK |
| 15 | no signal | 0 of 3 | 1 of 9 | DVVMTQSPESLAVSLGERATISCKSSQQVLYESRNKNSVRWYQQKAGQPPKLLIYWASTRESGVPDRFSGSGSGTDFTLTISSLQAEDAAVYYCEQYHRLPLSFGGGTKVEIK |
| 16 | no signal | 0 of 3 | 0 of 9 | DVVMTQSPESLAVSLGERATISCKSSQSVLYESRNKNSVAWYQQKAGQPPKLLIYWASTREWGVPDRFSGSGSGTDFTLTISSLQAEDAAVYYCQQYHRSPFSFGGGTKVEIK |
| 17 | 0.64 | 3 of 3 | 0 of 9 | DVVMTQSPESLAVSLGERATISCKSSQSVLYESRNNNSVAWYQQKAGQPPKLLIYWATTREQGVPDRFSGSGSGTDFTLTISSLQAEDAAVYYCQQYHRLPLSFGGGTKVEIK |
| 18 | no signal | 0 of 3 | 2 of 9 | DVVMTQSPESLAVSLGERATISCKSSQSCLYESRLKNSVAWYQQKAGQPPKLLIYWASVRESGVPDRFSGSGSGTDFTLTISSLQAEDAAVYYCQQYHRLPLSFGGGTKVEIK |
| 19 | no signal | 0 of 3 | 0 of 9 | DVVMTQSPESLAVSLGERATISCMSSQSVLYESRGKNSVAWYQQKAGQPPKLLIYWASTRESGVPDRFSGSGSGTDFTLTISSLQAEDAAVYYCQQYHRLPQSFGGGTKVEIK |
| 20 | no signal | 0 of 3 | 1 of 9 | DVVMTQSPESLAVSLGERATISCKSSQSVLYESRNHNSVAWYQQKAGQPPKLLIYWPSTRESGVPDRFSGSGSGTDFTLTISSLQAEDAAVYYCQQYHRLFLSFGGGTKVEIK |
| 21 | 4.11 | 1 of 3 | 3 of 9 | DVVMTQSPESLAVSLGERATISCKSSSSVHYESRNKNSVAWYQQKAGQPPKLLIYWASTREKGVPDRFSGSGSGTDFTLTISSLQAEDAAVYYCQQYHRLPLSFGGGTKVEIK |
| 22 | 2.39 | 3 of 3 | 1 of 9 | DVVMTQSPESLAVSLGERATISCGSSQSVLYYSRNKNSDAWYQQKAGQPPKLLIYWASTRESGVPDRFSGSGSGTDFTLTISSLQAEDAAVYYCQQYHRLPLSFGGGTKVEIK |
| 23 | 4.07 | 1 of 3 | 0 of 9 | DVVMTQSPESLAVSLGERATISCKSSQSVLYESTNKNSWAWYQQKAGQPPKLLIYWESTRESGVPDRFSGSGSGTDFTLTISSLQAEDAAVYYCQQYHRLPLSFGGGTKVEIK |
| 24 | 2.12 | 3 of 3 | 5 of 9 | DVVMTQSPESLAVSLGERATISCKSSQSVLQESRPKNSVAWYQQKAGQPPKLLIYWAATRESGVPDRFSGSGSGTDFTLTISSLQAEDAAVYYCQQYHRLPLSFGGGTKVEIK |

The measurements come from Engelhart et al. 2022 (doi:10.1038/s41597-022-01779-4) through the FLAb antibody collection.